From PubChem BioAssay AID1654 (Sanford-Burnham Center for Chemical Genomics, 2009)
The entries are a selection whose mix differs from that of the whole data set. Some salts or complexes appear as unconnected parts, following the source record. Active and inactive are the calls of the source. Rule as the data show it: active = inhibition above about 50%; inactive = the rest.

Amino acid sequences for entries named in this document (tags omitted).
UniProt P51452, whole entry: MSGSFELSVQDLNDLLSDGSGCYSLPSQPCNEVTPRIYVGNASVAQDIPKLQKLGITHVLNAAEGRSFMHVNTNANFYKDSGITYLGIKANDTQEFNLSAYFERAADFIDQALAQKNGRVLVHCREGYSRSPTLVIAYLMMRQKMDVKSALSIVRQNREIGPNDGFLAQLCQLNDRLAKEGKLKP

Target: Dual specificity protein phosphatase 3 (Homo sapiens) (UniProt P51452)
Test: inhibition of human DUSP3 activity – biochemical, absorbance, uHTS, primary screen (AID 1654)
Conditions: recombinant VHR phosphatase, pNPP absorbance; at 13.3 µM; stronger effect = higher value

Structure (SMILES) | inhibition
CCOC(=O)c1ccc(NP(C)(=O)Oc2ccc(Cl)cc2)cc1 (stereo not given) | inactive: -4.8%
CP(=O)(OC12CC3CC(CC(C3)C1)C2)OC12CC3CC(CC(C3)C1)C2 | inactive: 6.2%
COc1ccccc1OP(C)(=O)Nc1ccccc1Br (stereo not given) | inactive: 16%
CC(C)(C)c1ccc(OP(C)(=O)O)cc1 | inactive: 24%
CP(=O)(Nc1ccc(Cl)cc1)Oc1ccc(F)cc1 (stereo not given) | inactive: 31.5%
CN(C)C(=O)c1c([N+](=O)[O-])cc([N+](=O)[O-])cc1[N+](=O)[O-] | inactive: 4%
CCN(CC)CC(O)COC(=O)C(O)(c1ccccc1)C1CCCCC1 (stereo not given) | inactive: 17.9%
COc1ccc(OP(C)(=O)Nc2ccc(Br)cc2)cc1 (stereo not given) | inactive: 5.4%
COc1ccccc1OP(C)(=O)Nc1c(C)n(C)n(-c2ccccc2)c1=O (stereo not given) | inactive: 17.3%
O=C(OCCCN1CCCC1)C(O)(c1ccccc1)C1CCCCC1 (stereo not given) | inactive: -2.5%
CP(=O)(Oc1ccccc1)N1CCOC1=O (stereo not given) | inactive: 13.6%
CCc1ccc(OP(C)(=O)Nc2cccnc2)cc1 (stereo not given) | inactive: 9.9%
Cc1c(NP(C)(=O)Oc2ccc(C(C)C)cc2)c(=O)n(-c2ccccc2)n1C (stereo not given) | active: 55.5%
O=[N+]([O-])c1cc([N+](=O)[O-])c(Nc2ccccn2)c([N+](=O)[O-])c1 | inactive: 22.2%
CP(=O)(Nc1ccccn1)Oc1ccccc1 (stereo not given) | inactive: -1.4%
COc1ccccc1OP(C)(=O)Nc1ccc(C)cc1C (stereo not given) | inactive: 21.4%
CCc1ccc(OP(C)(=O)O)cc1 | inactive: 7.3%
COc1ccccc1OP(C)(=O)Nc1ccc(Br)cc1 (stereo not given) | inactive: 2.5%
COc1ccc(OP(C)(=O)Nc2ccccn2)cc1 (stereo not given) | inactive: 14%
CN(C)CCOC(=O)C(O)(c1ccccc1)C1CCCC1 (stereo not given) | inactive: 41.6%
Cc1nc2ccc3ccccc3c2o1.O=[N+]([O-])c1cc([N+](=O)[O-])c(O)c([N+](=O)[O-])c1 | inactive: 11.3%
CP(=O)(Nc1ccc(Cl)cc1Cl)Oc1ccccc1 (stereo not given) | inactive: 16.6%

Structure (SMILES) | inhibition
CP(=O)(OCCOc1ccccc1)OCCOc1ccccc1 | inactive: 2%
Cc1cc(C)cc(OP(C)(=O)Nc2cccc(C(F)(F)F)c2)c1 (stereo not given) | inactive: 15.1%
COc1ccccc1OP(C)(=O)Nc1ccc(C)c(C)c1 (stereo not given) | inactive: -7.7%
COc1ccc(OP(C)(=O)Nc2ccccc2Br)cc1 (stereo not given) | inactive: 14.7%
CCN(CC)CCCOC(=O)C(O)(c1ccccc1)C1CCCCC1 (stereo not given) | inactive: 13.4%
CP(=O)(Nc1ccccc1)Oc1ccc(F)cc1 (stereo not given) | inactive: 19.2%
CCCCCOc1ccc(NP(C)(=O)Oc2ccc(Cl)cc2Cl)cc1 (stereo not given) | inactive: 5%
O=[N+]([O-])c1cc([N+](=O)[O-])c(OC2CCCCC2O)c([N+](=O)[O-])c1 (stereo not given) | inactive: 17.6%
CCOC(=O)c1ccc(NP(C)(=O)Oc2ccc(F)cc2)cc1 (stereo not given) | inactive: 44.9%
COc1ccc(OP(C)(=O)Nc2ccc(SC(F)(F)F)cc2)cc1 (stereo not given) | inactive: 3.5%
O=C(OC1CN2CCC1CC2)c1ccc([N+](=O)[O-])cc1 (stereo not given) | inactive: 23.7%
O=C(OCCN1CCN(CCOCc2ccccc2)CC1)C(O)(c1ccccc1)c1ccccc1 | inactive: -3.6%
COc1ccc2c(c1O)-c1c(O)c(OC)cc3c1[C@H](C2)[N+](C)(C)CC3.O=[N+]([O-])c1cc([N+](=O)[O-])c([O-])c([N+](=O)[O-])c1[O-] | inactive: 18.7%
CP(=O)(Nc1ccccc1F)Oc1ccccc1 (stereo not given) | inactive: 10%
CC(C)c1ccc(OP(C)(=O)Nc2ccc(SC(F)(F)F)cc2)cc1 (stereo not given) | inactive: -2.7%
CP(=O)(Nc1ccc2c(c1)OCCO2)Oc1ccccc1 (stereo not given) | inactive: 4.4%
Cc1ccccc1NP(C)(=O)Nc1ccccc1C | inactive: 8.3%
CP(=O)(Nc1ccc(SC(F)(F)F)cc1)Oc1ccc(F)cc1 (stereo not given) | inactive: 25.3%
CCOP(C)(=S)SCC(=O)NC(C)(CC)C(=O)O (stereo not given) | inactive: -9%
O=[N+]([O-])c1ccc(OP2(=O)COCCO2)cc1 (stereo not given) | inactive: 27.7%
Cc1cc(-c2cccc3ccccc23)c(C)cn1.O=[N+]([O-])c1cc([N+](=O)[O-])c(O)c([N+](=O)[O-])c1 | inactive: 13.6%
O=[N+]([O-])c1cc([N+](=O)[O-])c(NCC2CCS(=O)(=O)C2)c([N+](=O)[O-])c1 (stereo not given) | inactive: -11.4%

Structure (SMILES) | inhibition
COc1ccc(OP(C)(=O)Nc2cccc(Br)c2)cc1 (stereo not given) | inactive: 15.1%
CN(C)CCOC(=O)C(O)(c1ccccc1)C1CCCCC1 (stereo not given) | inactive: 19.9%
COc1ccc(NP(C)(=O)Oc2ccccc2OC)cc1 (stereo not given) | inactive: 2.7%
CN1CCCCC1COC(=O)C1(O)c2ccccc2CCc2ccccc21 (stereo not given) | inactive: 7.5%
COc1ccccc1OP(C)(=O)Nc1c(C)cccc1C (stereo not given) | inactive: 31.6%
CCCOc1ccc(NP(C)(=O)Oc2ccc(Cl)cc2)cc1 (stereo not given) | inactive: 6.7%
CP(=O)(Nc1ccc(SC(F)(F)F)cc1)Oc1ccccc1 (stereo not given) | inactive: 7.4%
O=[N+]([O-])c1cc([N+](=O)[O-])c(Nc2nnnn2CCO)c([N+](=O)[O-])c1 | inactive: 6.9%
CCOC(=O)C(CC)C1=NC(C)(C)Cc2ccccc21.O=[N+]([O-])c1cc([N+](=O)[O-])c(O)c([N+](=O)[O-])c1 (stereo not given) | inactive: 26.9%
Cc1nc2ccc3ccccc3c2s1.O=[N+]([O-])c1cc([N+](=O)[O-])c(O)c([N+](=O)[O-])c1 | inactive: -0.8%
O=[N+]([O-])c1cc([N+](=O)[O-])c(-n2nnc3ccccc32)c([N+](=O)[O-])c1 | inactive: 18.4%
Cc1ccc(C)c(NP(C)(=O)Oc2ccccc2)c1 (stereo not given) | inactive: -0.2%
Cc1cc(C)cc(OP(C)(=O)Nc2ccccn2)c1 (stereo not given) | inactive: 16.1%
CP(=O)(Nc1cccc(Br)c1)Oc1ccccc1 (stereo not given) | inactive: -5.8%
COc1ccccc1OP(C)(=O)Nc1cccc(Br)c1 (stereo not given) | inactive: 11.2%
CCOC(=O)c1ccc(NP(C)(=O)Oc2cc(C)cc(C)c2)cc1 (stereo not given) | inactive: -1.6%
Cc1cc(C)cc(OP(C)(=O)Nc2ccc(C)cc2C)c1 (stereo not given) | inactive: 0%
CC1=NCCc2c1[nH]c1ccccc21.O=[N+]([O-])c1cc([N+](=O)[O-])c(O)c([N+](=O)[O-])c1 | inactive: -3.8%
O=C(O)c1cccc(Nc2c([N+](=O)[O-])cc([N+](=O)[O-])cc2[N+](=O)[O-])c1 | inactive: 18.8%
COc1ccccc1OP(C)(=O)Nc1ccc(C)cc1 (stereo not given) | inactive: 22.2%
Cc1ccc(NP(C)(=O)Oc2ccccc2)c(C)c1 (stereo not given) | inactive: -8.3%
CCOC(=O)c1ccc(NP(C)(=O)Oc2ccccc2)cc1 (stereo not given) | inactive: 4.4%

Structure (SMILES) | inhibition
Cc1cc(C)cc(OP(C)(N)=O)c1 (stereo not given) | inactive: -12.3%
COc1ccccc1OP(C)(=O)Nc1cc(Cl)ccc1C (stereo not given) | inactive: 10.3%
COc1ccc(OP(C)(=O)Nc2cccc(F)c2)cc1 (stereo not given) | inactive: 16.6%
O=[N+]([O-])c1ccc2c(c1)C=Nc1ccccc1O2 | inactive: 15.5%
CC(C)(C)c1ccc(OP(C)(=O)Nc2ccc(SC(F)(F)F)cc2)cc1 (stereo not given) | inactive: 7.8%
Cc1cccc(C)c1OP(C)(N)=O (stereo not given) | inactive: 13.1%
CCN(CC)CCCOC(=O)C(O)(c1ccccc1)c1ccccc1 | inactive: 8.3%
CCOC(=O)c1ccc(NP(C)(=O)Oc2ccc(OC)cc2)cc1 (stereo not given) | active: 50.8%
CCOP(C)(=S)SCC(=O)NC(C)C(=O)O (stereo not given) | inactive: -6.2%
CP(=O)(Nc1ccccn1)Oc1ccc(Cl)cc1 (stereo not given) | inactive: 0.1%
CP(=O)(Nc1ccc(SC(F)(F)F)cc1)Oc1ccc(Cl)cc1 (stereo not given) | inactive: -15.7%
Cc1cccc(C)c1OP(C)(=O)Nc1ccc(SC(F)(F)F)cc1 (stereo not given) | inactive: 4.7%
CP(=O)(Oc1ccccc1)OC(c1ccccc1)C(F)(F)F (stereo not given) | inactive: 20.2%
CP(=O)(NC(=O)Nc1ccccc1)Oc1ccccc1 (stereo not given) | inactive: 17.4%
CCc1ccc(OP(C)(=O)N2CCN(c3ccc([N+](=O)[O-])cc3)CC2)cc1 (stereo not given) | inactive: -1.3%
Cc1cc(C)cc(OP(C)(=O)Nc2ccc(SC(F)(F)F)cc2)c1 (stereo not given) | inactive: -14.1%
CP(=S)(Nn1cnnc1)Oc1ccccc1 (stereo not given) | inactive: 1.8%
CP(=O)(Nc1ccccc1Br)Oc1ccccc1 (stereo not given) | inactive: 4.4%
COc1ccccc1OP(C)(=O)Nc1ccccc1 (stereo not given) | inactive: 12.4%
